Data: ChEMBL document CHEMBL1781871, “Discovery and SAR of novel mGluR5 non-competitive antagonists not based on an MPEP chemotype” (Bioorg Med Chem Lett, 2009)

Protein sequences, listed by entry. Tags and fused reporters are not part of them.
UniProt P41594, whole entry: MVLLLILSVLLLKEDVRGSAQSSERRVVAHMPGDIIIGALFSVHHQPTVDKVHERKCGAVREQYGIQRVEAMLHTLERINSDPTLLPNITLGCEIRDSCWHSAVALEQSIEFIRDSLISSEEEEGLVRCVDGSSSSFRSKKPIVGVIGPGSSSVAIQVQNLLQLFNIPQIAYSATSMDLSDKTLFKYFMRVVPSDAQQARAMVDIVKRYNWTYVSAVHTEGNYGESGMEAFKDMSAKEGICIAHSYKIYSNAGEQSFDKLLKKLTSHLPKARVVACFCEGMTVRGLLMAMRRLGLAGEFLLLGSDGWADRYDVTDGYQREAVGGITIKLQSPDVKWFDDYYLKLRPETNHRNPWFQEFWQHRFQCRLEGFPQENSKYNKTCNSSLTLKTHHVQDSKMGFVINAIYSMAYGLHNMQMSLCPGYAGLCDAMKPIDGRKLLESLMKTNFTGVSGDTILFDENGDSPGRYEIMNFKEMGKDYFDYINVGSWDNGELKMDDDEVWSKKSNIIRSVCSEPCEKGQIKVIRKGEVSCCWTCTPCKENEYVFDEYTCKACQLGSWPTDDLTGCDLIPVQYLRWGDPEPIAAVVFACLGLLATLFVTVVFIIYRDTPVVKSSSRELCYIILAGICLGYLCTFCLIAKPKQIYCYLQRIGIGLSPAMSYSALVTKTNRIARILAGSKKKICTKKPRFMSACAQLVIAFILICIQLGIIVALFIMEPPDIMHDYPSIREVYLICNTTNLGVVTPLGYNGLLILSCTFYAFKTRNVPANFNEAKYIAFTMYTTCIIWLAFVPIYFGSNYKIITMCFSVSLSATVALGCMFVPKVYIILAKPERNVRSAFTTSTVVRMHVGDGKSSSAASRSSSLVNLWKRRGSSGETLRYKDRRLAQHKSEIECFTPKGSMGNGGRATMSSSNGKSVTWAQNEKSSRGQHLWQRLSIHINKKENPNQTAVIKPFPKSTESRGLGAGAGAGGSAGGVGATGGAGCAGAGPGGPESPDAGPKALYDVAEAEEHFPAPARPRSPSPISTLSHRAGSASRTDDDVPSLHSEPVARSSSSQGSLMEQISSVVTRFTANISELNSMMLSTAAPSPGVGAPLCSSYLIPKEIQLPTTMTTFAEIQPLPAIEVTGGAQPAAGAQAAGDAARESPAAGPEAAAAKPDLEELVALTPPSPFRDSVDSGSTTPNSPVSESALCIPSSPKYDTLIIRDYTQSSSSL

What was measured:
[1] = target: T1, Metabotropic glutamate receptor 5 (Homo sapiens, UniProt P41594); test: Displacement of [3H]3-methoxy-5-(2-pyridinylethynyl) pyridine from mGluR5 allosteric site
[2] = target: T1, Metabotropic glutamate receptor 5; test: Non-competitive antagonist activity at mGluR5; format: functional

| Structure (SMILES) | Ki [1] [nM] | IC50 [2] [nM] |
| --- | --- | --- |
| O=C(N1CCN(c2nccs2)CC1)C12CC3CC(CC(C3)C1)C2 | 440 | 540 |
| O=C(CSc1ccccc1)N1CCCC2(CCCCC2)C1 | – | 5240 |
| O=C(C1CCC1)N1CCCC2(CCCCC2)C1 | 840 | 820 |
| N#Cc1ccccc1N1CCN(C(=O)C23CC4CC(CC(C4)C2)C3)CC1 | – | 2350 |
| Cc1cc(C)c2c(N)c(C(=O)c3ccc(F)cc3)oc2n1 | 410 | – |
